These results are taken from patent US4098706A, “Lubricating agents for thermoplastic materials and process for preparing the same” (Sapchim-Fournier-Cimag, priority 1975, dated 1978).

A short description of data set [1]: Tendency for bubbles to appear in the polyvinyl chlorides containing the lubricating agents. The class given is physicochemical.
Data set [2] is described as follows: Static thermostability of the lubricated resin, oven 185° C. The conditions noted are these: study E(a), 0.5 part.

For the substance glyceryl trimontanate, in data set [1], the “Observations (release of gas)” value is reported as “Release increasing” and the “Temperature at which bubbles appear” value was 150 °C. For the same substance, the “Static thermostability, abrupt decomposition after” value in data set [2] was 60 min.
